{"source": "patent US11021501B2", "about": "“Creatine phosphate analog prodrugs, compositions and methods of use thereof” (Farmington Pharma Development, priority 2015, dated 2021)", "origin": "cited, not measured here", "test_system": "ALS", "conditions": "ALS patients"}
{"smiles": "Nc1nc2ccc(OC(F)(F)F)cc2s1", "note": "[riluzole]", "values": [{"measurement": "extension of survival", "value": "about three"}]}
